Target: human Farnesoid X Receptor (FXR) ligand binding domain (GST-FXR LBD) (Homo sapiens, UniProt Q96RI1)
Assay: Human GST-FXR LBD co-activator interaction assay (FXR HTRF assay)
Assay type: biochemical
Conditions: read-out: FXR coactivator interaction assay (HTRF), ligand-dependent interaction of GST-FXR LBD with biotin-labeled SRC-1 peptide, response relative to GW4064

The chains behind the UniProt entries cited, without tags or fusion partners. Residues count along the entry.
UniProt Q96RI1, 193-472 isoform 2 limits assumed: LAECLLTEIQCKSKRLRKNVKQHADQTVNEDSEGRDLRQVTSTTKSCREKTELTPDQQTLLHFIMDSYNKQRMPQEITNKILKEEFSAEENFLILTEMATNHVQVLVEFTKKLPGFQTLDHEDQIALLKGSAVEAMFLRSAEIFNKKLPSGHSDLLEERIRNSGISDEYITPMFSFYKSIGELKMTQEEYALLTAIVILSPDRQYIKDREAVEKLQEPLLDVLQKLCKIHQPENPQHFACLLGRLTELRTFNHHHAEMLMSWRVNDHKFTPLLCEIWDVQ

- EC50: 72 nM
SMILES: Cn1nc(C(=O)N(CC(=O)Nc2cccc(S(N)(=O)=O)c2)Cc2ccccc2F)c2c1-c1cc(Cl)ccc1OC2

Reference: patent US10351576B2, “Fused tricyclic pyrazole derivatives useful for farnesoid X receptors” (NOVARTIS AG, priority 2015, dated 2019)
